This note sets out measurements from patent US6987168.

Among the targets are plasmin; trypsin; tissue kallikrein.
Holding throughout (experiment): cell-based or functional assay

In the test with plasmin, aprotinin (from UniProt P00974 36-91) showed a concentration corresponding with 50% plasmin inhibition (peptide release from resorufin-labelled casein) of 0.097 µM. In addition, the concentration for 50% trypsin inhibition (peptide release from resorufin-labelled casein) with trypsin stood at 0.024 µM. In the test with tissue kallikrein, this substance registered a tissue kallikrein activity (n-benzoyl-Pro-Phe-Arg-pNA, absorbance at 410 nm); concentration giving complete inhibition of 0.75 µM.
